Like-named read-outs stand apart in the source and are kept apart here.
Test system: bacteria in Chlorella sp. culture
Details: pH lowered from about 7.5 to 3.5 for 15 minutes

Structure (SMILES): CC(=O)O [Acetic acid, acetic acid]
- Bacteria to Algae Ratio (Guava Flow Cytometry) (0 h): 0.19 ± 0.02
- Bacteria to Algae Ratio (Guava Flow Cytometry) (72 h): 0.18 ± 0.01

Source: US9416347B2, “Method of treating bacterial contamination in a microalgae culture with pH shock” (Heliae Development LLC, priority 2014, dated 2016)
